Source: PubChem BioAssay (NCI)
“And” between values parts separate entries of the source, which are not always exact repeats. Equal entries are not always repeated. This is a selection; strong and weak results do not stand in their true shares. Some of these compounds have results that are not shown, active ones among them.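 Step 1: grow cells in 96-well plates. Step 2: add test compound at a single concentration. Step 3: incubate 48 h. Step 4: record percent growth.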 The source made the active and inactive calls. How the source made its calls: active means growth percent below 10; inactive means the rest.

Key:
Test in all cases: NCI-60 one-dose screen, 48 h (100 = growth as untreated, 0 = no growth, -100 = all killed)
Settings in all cases: 10 µM
NCI/ADR-RES ovarian = test system: NCI/ADR-RES ovarian
T-47D breast = test system: T-47D breast
BT-549 breast = test system: BT-549 breast
MDA-MB-435 melanoma = test system: MDA-MB-435 melanoma
SW-620 colon = test system: SW-620 colon
MCF7 breast = test system: MCF7 breast
HCT-116 colon = test system: HCT-116 colon
HCC-2998 colon = test system: HCC-2998 colon
KM12 colon = test system: KM12 colon

Measured: growth

CCOc1ccc([N+](=O)[O-])cc1CN(CCCl)CCCl
inactive: NCI/ADR-RES ovarian 95.8% | T-47D breast 103% | BT-549 breast 90.6% | MDA-MB-435 melanoma 106% | SW-620 colon 89.4% | MCF7 breast 85.8% | HCT-116 colon 94.1% | HCC-2998 colon 87.9% | KM12 colon 96.5%

ClCCN(CCCl)Cc1ccsc1Br
inactive: NCI/ADR-RES ovarian 80% | T-47D breast 95.5% | BT-549 breast 100% | MDA-MB-435 melanoma 99.6% | SW-620 colon 58.8% | MCF7 breast 66.4% | HCT-116 colon 86.3% | HCC-2998 colon 80.2% | KM12 colon 95%

COCc1c(CN(CCCl)CCCl)cnc(C)c1O
inactive: NCI/ADR-RES ovarian 102% | T-47D breast 102% | BT-549 breast 100% | MDA-MB-435 melanoma 104% | SW-620 colon 92.6% | MCF7 breast 85.1% | HCT-116 colon 95.7% | HCC-2998 colon 103% | KM12 colon 107%

CC[N+](C)(C)Cc1cccc(Cc2ccccc2)c1OC(=O)N(C)C
inactive: NCI/ADR-RES ovarian 97.5% | T-47D breast 101% | BT-549 breast 104% | MDA-MB-435 melanoma 105% | SW-620 colon 103% | MCF7 breast 96.7% | HCT-116 colon 97.2% | HCC-2998 colon 103% | KM12 colon 99.9%

ClCCCCCC(CCl)NCCCl (stereo not given)
inactive: NCI/ADR-RES ovarian 90.7% | T-47D breast 86.7% | BT-549 breast 104% | MDA-MB-435 melanoma 106% | SW-620 colon 90% | MCF7 breast 60.6% | HCT-116 colon 85.7% | HCC-2998 colon 78.3% | KM12 colon 94.8%

CCNCCCl
inactive: NCI/ADR-RES ovarian 112% | T-47D breast 120% | BT-549 breast 112% | MDA-MB-435 melanoma 99.1% | SW-620 colon 99.1% | MCF7 breast 95.1% | HCT-116 colon 106% | HCC-2998 colon 122% | KM12 colon 95.2%

ClCCN(CCCl)C1c2ccccc2-c2ccccc21
inactive: NCI/ADR-RES ovarian 92% | T-47D breast 79.8% | BT-549 breast 100% | MDA-MB-435 melanoma 100% | SW-620 colon 85.3% | MCF7 breast 63.4% | HCT-116 colon 85.3% | HCC-2998 colon 90.2% | KM12 colon 98.7%

ClCCN(CCCl)Cc1cc(Cl)cc(Cl)c1
inactive: NCI/ADR-RES ovarian 76.8% | T-47D breast 65.2% | BT-549 breast 84.5% | MDA-MB-435 melanoma 76.2% | SW-620 colon 58.3% | MCF7 breast 44% | HCT-116 colon 62.2% | HCC-2998 colon 73.8% | KM12 colon 89.9%

CC(C)(C)N(CCCl)CCCl
inactive: NCI/ADR-RES ovarian 109% | T-47D breast 104% | BT-549 breast 113% | MDA-MB-435 melanoma 104% | SW-620 colon 98% | MCF7 breast 95.6% | HCT-116 colon 101% | HCC-2998 colon 106% | KM12 colon 119%

CC(=O)CI
inactive: NCI/ADR-RES ovarian 108% | T-47D breast 101% | BT-549 breast 106% | MDA-MB-435 melanoma 103% | SW-620 colon 101% | MCF7 breast 95.8% | HCT-116 colon 101% | HCC-2998 colon 106% | KM12 colon 105%

CN(CCBr)CCBr
inactive: NCI/ADR-RES ovarian 107% | T-47D breast 84.6% | BT-549 breast 94.7% | MDA-MB-435 melanoma 99.9% | SW-620 colon 82.5% | MCF7 breast 72.1% | HCT-116 colon 86.9% | HCC-2998 colon 100% | KM12 colon 106%

N#CC(C#N)=Cc1ccccc1Cl
inactive: NCI/ADR-RES ovarian 104% | T-47D breast 97.7% | BT-549 breast 108% | MDA-MB-435 melanoma 112% | SW-620 colon 116% | MCF7 breast 95.5% | HCT-116 colon 103% | HCC-2998 colon 106% | KM12 colon 106%

COc1ccc([N+](=O)[O-])cc1CN(CCCl)CCCl
inactive: NCI/ADR-RES ovarian 104% | T-47D breast 110% | BT-549 breast 103% | MDA-MB-435 melanoma 102% | SW-620 colon 80.4% | MCF7 breast 66.9% | HCT-116 colon 92.3% | HCC-2998 colon 91.5% | KM12 colon 103%

CCCN(CCCl)CCCl
inactive: NCI/ADR-RES ovarian 119% | T-47D breast 102% | BT-549 breast 106% | MDA-MB-435 melanoma 102% | SW-620 colon 101% | MCF7 breast 91.2% | HCT-116 colon 104% | HCC-2998 colon 133% | KM12 colon 110%

ClCCN(CCCl)C1CCCCC1
inactive: NCI/ADR-RES ovarian 95.2% | T-47D breast 100% | BT-549 breast 109% | MDA-MB-435 melanoma 97.2% | SW-620 colon 93.6% | MCF7 breast 92.1% | HCT-116 colon 102% | HCC-2998 colon 103% | KM12 colon 100%

N#CC(C#N)=Cc1cccc(Br)c1
inactive: NCI/ADR-RES ovarian 109% | T-47D breast 89% | BT-549 breast 99% | MDA-MB-435 melanoma 104% | SW-620 colon 102% | MCF7 breast 96.6% | HCT-116 colon 94.1% | HCC-2998 colon 108% | KM12 colon 108%

Cc1cc2nc(CN(CCCl)CCCl)[nH]c2cc1C
inactive: NCI/ADR-RES ovarian 87.6% | T-47D breast 81.4% | BT-549 breast 101% | MDA-MB-435 melanoma 114% | SW-620 colon 67.1% | MCF7 breast 51.9% | HCT-116 colon 74.5% | HCC-2998 colon 66% | KM12 colon 89.7%

Fc1cccc(CN(CCCl)CCCl)c1
inactive: NCI/ADR-RES ovarian 93.4% | T-47D breast 98.6% | BT-549 breast 93.8% | MDA-MB-435 melanoma 98.1% | SW-620 colon 90% | MCF7 breast 76.2% | HCT-116 colon 90.5% | HCC-2998 colon 85.7% | KM12 colon 104%

O=C(OCCN1CCCC1)C(O)(c1ccccc1)c1ccccc1
inactive: NCI/ADR-RES ovarian 106% | T-47D breast 96.7% | BT-549 breast 105% | MDA-MB-435 melanoma 110% | SW-620 colon 109% | MCF7 breast 107% | HCT-116 colon 110% | KM12 colon 109%

ClCCN(CCCl)Cc1ccc(Cl)c(Cl)c1
inactive: NCI/ADR-RES ovarian 98% | T-47D breast 90.2% | BT-549 breast 107% | MDA-MB-435 melanoma 106% | SW-620 colon 102% | MCF7 breast 96.1% | HCT-116 colon 95.2% | HCC-2998 colon 98.4% | KM12 colon 98%

COc1ccc(N=C=S)cc1CN(CCCl)CCCl
inactive: NCI/ADR-RES ovarian 76.8% | T-47D breast 42.6% | BT-549 breast 71.2% | MDA-MB-435 melanoma 88.3% | SW-620 colon 53.5% | MCF7 breast 32.9% | HCT-116 colon 63.7% | HCC-2998 colon 71.7% | KM12 colon 87.9%

BrCCN(CCBr)Cc1ccccc1
inactive: NCI/ADR-RES ovarian 111% | T-47D breast 108% | BT-549 breast 104% | MDA-MB-435 melanoma 99.5% | SW-620 colon 103% | MCF7 breast 99% | HCT-116 colon 112% | HCC-2998 colon 109% | KM12 colon 115%

N#CC(C#N)=Cc1ccc(Br)cc1
inactive: NCI/ADR-RES ovarian 103% and 104% | T-47D breast 101% and 96.5% | BT-549 breast 114% and 123% | MDA-MB-435 melanoma 103% and 111% | SW-620 colon 104% and 118% | MCF7 breast 99.4% and 96.4% | HCT-116 colon 94% and 106% | HCC-2998 colon 111% and 95.6% | KM12 colon 104%

CN(C)CCOC(=O)C(O)(c1ccccc1)c1ccccc1
inactive: NCI/ADR-RES ovarian 113% | T-47D breast 113% | BT-549 breast 112% | MDA-MB-435 melanoma 93.7% | SW-620 colon 114% | MCF7 breast 109% | HCT-116 colon 112% | HCC-2998 colon 117% | KM12 colon 112%
